Measured values taken from ChEMBL document CHEMBL1124142, “N6-[2-(3,5-dimethoxyphenyl)-2-(2-methylphenyl)ethyl]adenosine and its uronamide derivatives. Novel adenosine agonists with both high affinity and high selectivity for the adenosine A2 receptor” (J Med Chem, 1988).

The chains behind the UniProt entries cited, without tags or fusion partners.
UniProt P25099, whole entry: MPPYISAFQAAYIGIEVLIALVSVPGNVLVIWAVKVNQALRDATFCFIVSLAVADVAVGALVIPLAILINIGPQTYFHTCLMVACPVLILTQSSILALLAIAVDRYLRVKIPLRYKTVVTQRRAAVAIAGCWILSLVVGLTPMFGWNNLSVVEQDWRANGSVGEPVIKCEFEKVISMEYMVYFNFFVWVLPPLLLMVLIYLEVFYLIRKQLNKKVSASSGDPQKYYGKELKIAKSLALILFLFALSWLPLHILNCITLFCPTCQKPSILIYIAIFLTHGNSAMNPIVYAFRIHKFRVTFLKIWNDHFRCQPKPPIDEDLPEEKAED

Molecular target: Adenosine receptor A1 (Rattus norvegicus, UniProt P25099)
Assay: biochemical

Q: With OC[C@H]1O[C@@H](n2cnc3c(NCC4c5ccccc5-c5ccccc54)ncnc32)[C@H](O)[C@@H]1O as the compound, how does the Ki read?
A: The Ki was 5.2 nM.
